Assay results: patent publication US7399744B2, “Methods for affecting body composition” (Amylin Pharmaceuticals, Inc., priority 2004, dated 2008)

Legend:
[1] = tested on: insulin-stimulated glycogen synthesis in soleus muscle; assay: Soleus muscle assay; format: cell-based, rat; details: for EC50: rat soleus muscle, […] insulin, inhibition of glucose incorporation into glycogen
[2] = Solubility and stability compared to human amylin; format: physicochemical
[3] = target: T1, amylin receptors (Rattus norvegicus, UniProt P32214+Q9JJ74); assay: Receptor binding assay (competition with 125I Bolton Hunter rat amylin, basal forebrain membranes)
T1 construct: This basal forebrain tissue, containing the nucleus accumbens and surrounding regions, was weighed and homogenized; from tissue; host or cells: rat basal forebrain (nucleus accumbens and surrounding regions) membranes
T1 sequence (P32214 25-516): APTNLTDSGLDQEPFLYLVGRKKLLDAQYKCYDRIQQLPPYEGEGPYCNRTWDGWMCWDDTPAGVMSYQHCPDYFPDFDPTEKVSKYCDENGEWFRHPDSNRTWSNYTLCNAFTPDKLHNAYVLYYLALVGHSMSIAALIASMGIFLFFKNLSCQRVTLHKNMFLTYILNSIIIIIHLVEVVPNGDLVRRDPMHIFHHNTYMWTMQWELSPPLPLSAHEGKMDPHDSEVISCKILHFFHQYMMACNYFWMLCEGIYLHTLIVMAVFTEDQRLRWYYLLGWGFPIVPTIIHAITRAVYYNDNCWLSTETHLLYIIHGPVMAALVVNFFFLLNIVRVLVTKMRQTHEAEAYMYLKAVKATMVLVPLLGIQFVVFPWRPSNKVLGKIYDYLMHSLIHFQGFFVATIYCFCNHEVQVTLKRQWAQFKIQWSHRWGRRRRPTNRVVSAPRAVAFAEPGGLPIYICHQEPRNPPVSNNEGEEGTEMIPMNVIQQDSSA
T1 sequence (Q9JJ74 27-148): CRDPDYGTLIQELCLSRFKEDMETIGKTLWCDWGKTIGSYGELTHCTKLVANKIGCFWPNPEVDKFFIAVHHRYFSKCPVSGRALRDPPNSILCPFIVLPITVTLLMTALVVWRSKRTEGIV

Compound | amylin agonist action in the soleus muscle assay [1] | antagonist activity as measured by the soleus muscle assay [1] | EC50 [1] | solubility and stability characteristics when compared to human amylin [2] | compete with amylin in the receptor binding assay [3] | IC50 ([3]; read-out: Receptor Binding) | IC50 [3]
CC(C)C[C@H](NC(=O)[C@H](CCCNC(=N)N)NC(=O)[C@H](CCC(N)=O)NC(=O)[C@@H](NC(=O)[C@H](C)NC(=O)[C@@H]1CSSC[C@H](NC(=O)[C@@H](N)CCCCN)C(=O)N[C@@H](CC(N)=O)C(=O)N[C@@H]([C@@H](C)O)C(=O)N[C@@H](C)C(=O)N[C@@H]([C@@H](C)O)C(=O)N1)[C@@H](C)O)C(=O)N[C@@H](C)C(=O)N[C@@H](CC(N)=O)C(=O)N[C@@H](Cc1ccccc1)C(=O)N[C@@H](CC(C)C)C(=O)N[C@H](C(=O)N[C@@H](Cc1c[nH]cn1)C(=O)N[C@@H](CO)C(=O)N[C@@H](CO)C(=O)N[C@@H](CC(N)=O)C(=O)N[C@@H](CC(N)=O)C(=O)N[C@@H](Cc1ccccc1)C(=O)NCC(=O)N1CCC[C@H]1C(=O)N[C@H](C(=O)N[C@@H](CC(C)C)C(=O)N1CCC[C@H]1C(=O)N1CCC[C@H]1C(=O)N[C@H](C(=O)N[C@@H](CC(N)=O)C(=O)N[C@H](C(=O)NCC(=O)N[C@@H](CO)C(=O)N[C@@H](CC(N)=O)C(=O)N[C@H](C(=O)N[C@@H](Cc1ccc(O)cc1)C(N)=O)[C@@H](C)O)C(C)C)[C@@H](C)O)C(C)C)C(C)C [^25Pro^26Val^28,29Pro-h-Amylin] | act as amylin agonists | negligible | 4.68 nM | more desirable | compete with amylin | 0.018 nM | –
CC[C@H](C)[C@H](NC(=O)[C@@H]1CCCN1C(=O)CNC(=O)[C@H](Cc1ccccc1)NC(=O)[C@H](CC(N)=O)NC(=O)[C@H](CC(N)=O)NC(=O)[C@H](CO)NC(=O)[C@H](CO)NC(=O)[C@H](CCCNC(=N)N)NC(=O)[C@@H](NC(=O)[C@H](CC(C)C)NC(=O)[C@H](Cc1ccccc1)NC(=O)[C@H](CC(N)=O)NC(=O)[C@H](C)NC(=O)[C@H](CC(C)C)NC(=O)[C@H](CCCNC(=N)N)NC(=O)[C@H](CCC(N)=O)NC(=O)[C@@H](NC(=O)[C@H](C)NC(=O)[C@@H]1CSSC[C@H](N)C(=O)N[C@@H](CC(N)=O)C(=O)N[C@@H]([C@@H](C)O)C(=O)N[C@@H](C)C(=O)N[C@@H]([C@@H](C)O)C(=O)N1)[C@@H](C)O)C(C)C)C(=O)N[C@@H](CC(C)C)C(=O)N1CCC[C@H]1C(=O)N1CCC[C@H]1C(=O)N[C@H](C(=O)N[C@@H](CC(N)=O)C(=O)N[C@H](C(=O)NCC(=O)N[C@@H](CO)C(=O)N[C@@H](CC(N)=O)C(=O)N[C@H](C(=O)N[C@@H](Cc1ccc(O)cc1)C(N)=O)[C@@H](C)O)C(C)C)[C@@H](C)O [des-^1Lys^18Arg^25,28,29Pro-h-Amylin] | act as amylin agonists | negligible | 1.86 nM | – | compete with amylin | 0.021 nM | –
CC[C@H](C)[C@H](NC(=O)[C@H](C)NC(=O)CNC(=O)[C@H](Cc1ccccc1)NC(=O)[C@H](CC(N)=O)NC(=O)[C@H](CC(N)=O)NC(=O)[C@H](CO)NC(=O)[C@H](CO)NC(=O)[C@H](Cc1c[nH]cn1)NC(=O)[C@@H](NC(=O)[C@H](CC(C)C)NC(=O)[C@H](Cc1ccccc1)NC(=O)[C@H](CC(N)=O)NC(=O)[C@H](C)NC(=O)[C@H](CC(C)C)NC(=O)[C@H](CCCNC(=N)N)NC(=O)[C@H](CCC(N)=O)NC(=O)[C@@H](NC(=O)[C@H](C)NC(=O)[C@@H]1CSSC[C@H](NC(=O)[C@@H](N)CCCCN)C(=O)N[C@@H](CC(N)=O)C(=O)N[C@@H]([C@@H](C)O)C(=O)N[C@@H](C)C(=O)N[C@@H]([C@@H](C)O)C(=O)N1)[C@@H](C)O)C(C)C)C(=O)N[C@@H](CC(C)C)C(=O)N1CCC[C@H]1C(=O)N[C@@H](CO)C(=O)N[C@H](C(=O)N[C@@H](CC(N)=O)C(=O)N[C@H](C(=O)NCC(=O)N[C@@H](CO)C(=O)N[C@@H](CC(N)=O)C(=O)N[C@H](C(=O)N[C@@H](Cc1ccc(O)cc1)C(N)=O)[C@@H](C)O)C(C)C)[C@@H](C)O [^28Pro-h-Amylin] | – | – | 2.64 nM | – | – | 0.015 nM | –
CC[C@H](C)[C@H](NC(=O)[C@@H]1CCCN1C(=O)CNC(=O)[C@H](Cc1ccccc1)NC(=O)[C@H](CC(N)=O)NC(=O)[C@H](CC(N)=O)NC(=O)[C@H](CO)NC(=O)[C@H](CO)NC(=O)[C@H](CCCNC(=N)N)NC(=O)[C@@H](NC(=O)[C@H](CC(C)C)NC(=O)[C@H](Cc1ccccc1)NC(=O)[C@H](CC(N)=O)NC(=O)[C@H](C)NC(=O)[C@H](CC(C)C)NC(=O)[C@H](CCCNC(=N)N)NC(=O)[C@H](CCC(N)=O)NC(=O)[C@@H](NC(=O)[C@H](C)NC(=O)[C@@H]1CSSC[C@H](NC(=O)[C@@H](N)CCCCN)C(=O)N[C@@H](CC(N)=O)C(=O)N[C@@H]([C@@H](C)O)C(=O)N[C@@H](C)C(=O)N[C@@H]([C@@H](C)O)C(=O)N1)[C@@H](C)O)C(C)C)C(=O)N[C@@H](CC(C)C)C(=O)N1CCC[C@H]1C(=O)N[C@@H](CO)C(=O)N[C@H](C(=O)N[C@@H](CC(N)=O)C(=O)N[C@H](C(=O)NCC(=O)N[C@@H](CO)C(=O)N[C@@H](CC(N)=O)C(=O)N[C@H](C(=O)N[C@@H](Cc1ccc(O)cc1)C(N)=O)[C@@H](C)O)C(C)C)[C@@H](C)O [^18Arg^25,28Pro-h-Amylin] | act as amylin agonists | negligible | 2.83 nM | more desirable | compete with amylin | 0.032 nM | –
CC[C@H](C)[C@H](NC(=O)[C@H](C)NC(=O)CNC(=O)[C@H](Cc1ccccc1)NC(=O)[C@H](CC(N)=O)NC(=O)[C@H](CC(N)=O)NC(=O)[C@H](CO)NC(=O)[C@H](CO)NC(=O)[C@H](Cc1c[nH]cn1)NC(=O)[C@@H](NC(=O)[C@H](CC(C)C)NC(=O)[C@H](Cc1ccccc1)NC(=O)[C@H](CC(N)=O)NC(=O)[C@H](C)NC(=O)[C@H](CC(C)C)NC(=O)[C@H](CCCNC(=N)N)NC(=O)[C@H](CCC(N)=O)NC(=O)[C@@H](NC(=O)[C@H](C)NC(=O)[C@@H]1CSSC[C@H](NC(=O)[C@H](C)N)C(=O)N[C@@H](CC(N)=O)C(=O)N[C@@H]([C@@H](C)O)C(=O)N[C@@H](C)C(=O)N[C@@H]([C@@H](C)O)C(=O)N1)[C@@H](C)O)C(C)C)C(=O)N[C@@H](CC(C)C)C(=O)N[C@@H](CO)C(=O)N[C@@H](CO)C(=O)N[C@H](C(=O)N[C@@H](CC(N)=O)C(=O)N[C@H](C(=O)NCC(=O)N[C@@H](CO)C(=O)N[C@@H](CC(N)=O)C(=O)N[C@H](C(=O)N[C@@H](Cc1ccc(O)cc1)C(N)=O)[C@@H](C)O)C(C)C)[C@@H](C)O [^1Ala-h-Amylin] | – | – | 12.8 nM | – | – | – | 0.148 nM

Like-named read-outs stand apart in the source and are kept apart here.
